# Results from patent publication US11464832B2, “Composition for treating or sensitizing interferon beta resistant cancer disease comprising cFLIP siRNA” (ABION INC., priority 2016, dated 2022).
# B1: IFNβ: interferon-beta, Type 1 interferon, spherical protein of 22 kDa (protein)
# chain: MSYNLLGFLQRSSNFQCQKLLWQLNGRLEYCLKDRMNFDIPEEIKQLQQFQKEDAALTIYEMLQNIFAIFRQDSSSTGWNETIVENLLANVYHQINHLKTVLEEKLEKEDFTRGKLMSSLHLKRYYGRILHYLKAKEYSHCAWTIVRVEILRNFYFINRLTGYLRN
# modifications: Human Interferon-beta
# notes: interferon-beta, Type 1 interferon, spherical protein of 22 kDa
# Key:
# Test in all cases: WST cell viability, siRNA with Carbiferon, ACFP or Herceptin
# Format in all cases: cell-based
# Conditions in all cases: compared with cells normally responding to IFNβ, data not shown
# [1] = test system: SK-OV-3 cell line (ovarian cancer cells)
# Description: (§1) In order to investigate cell apoptotic ability by co-treatment of the selected cFLIP siRNAs together and Carbiferon or ACFP, SK-OV-3, SNU-216, and NCI-N87 cells were dispensed at 1×10^4 cells/well in a 24-well plate, and incubated at 37.5° C. in a 5% CO2 environment for 24 hours. ACFP is a fusion protein in which Carbiferon (R27T) is fused to a terminus of the heavy chain of Herceptin. After 24 hours, the cell culture was removed, and 10 nM siRNA was mixed with Dharmafect transfection reagent, and the cells were treated with the mixture after the incubation at room temperature for 15 minutes. After 24-hour treatment, the culture was removed, and the cells were treated with 100 ng/ml of Carbiferon, ACFP, and Herceptin and additionally incubated for 48 hours. Thereafter, the culture was removed, followed by washing three times with PBS. Then, WST reagent was mixed with the culture at 1:10, and each well were treated with the mixture, and incubated at 37.5° C. in a 5% CO2 atmosphere for 2 hours. The absorbance was measured at a wavelength of 430 nm.
# [2] = test system: NCI-N87 cell line (gastric cancer cells)
# Description: as §1
# [3] = test system: SNU-216 cell line (gastric cancer cells)
# Description: as §1
molecule,measurement,setting,value
B1,response of the cell line to IFNβ,[1],very low sensitivity
same,response of the cell line to IFNβ,[2],very low sensitivity
same,response of the cell line to IFNβ,[3],do not respond to IFNβ at all
